Assay results as given in patent US20250382344A1, “Soluble GLP1/GIP/NPY2 Receptor Triple Agonists” (Boehringer Ingelheim International GmH, priority 2024, published 2025).
Read-outs that look alike come from different tables or passages of the source.

Amino acid sequences for entries named in this document (tags omitted). Residues count along the entry.
UniProt P49146, whole entry: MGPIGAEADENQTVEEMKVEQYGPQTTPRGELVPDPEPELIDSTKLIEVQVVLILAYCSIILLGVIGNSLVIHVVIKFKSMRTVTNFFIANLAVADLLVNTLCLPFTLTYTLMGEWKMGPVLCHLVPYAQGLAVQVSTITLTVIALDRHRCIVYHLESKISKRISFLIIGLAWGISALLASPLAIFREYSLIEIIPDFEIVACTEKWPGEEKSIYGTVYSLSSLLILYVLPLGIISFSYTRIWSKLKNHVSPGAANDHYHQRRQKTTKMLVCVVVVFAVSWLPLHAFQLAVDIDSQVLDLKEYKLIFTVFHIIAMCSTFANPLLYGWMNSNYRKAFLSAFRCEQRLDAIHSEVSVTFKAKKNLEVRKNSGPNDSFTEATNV
UniProt P43220, 24-463: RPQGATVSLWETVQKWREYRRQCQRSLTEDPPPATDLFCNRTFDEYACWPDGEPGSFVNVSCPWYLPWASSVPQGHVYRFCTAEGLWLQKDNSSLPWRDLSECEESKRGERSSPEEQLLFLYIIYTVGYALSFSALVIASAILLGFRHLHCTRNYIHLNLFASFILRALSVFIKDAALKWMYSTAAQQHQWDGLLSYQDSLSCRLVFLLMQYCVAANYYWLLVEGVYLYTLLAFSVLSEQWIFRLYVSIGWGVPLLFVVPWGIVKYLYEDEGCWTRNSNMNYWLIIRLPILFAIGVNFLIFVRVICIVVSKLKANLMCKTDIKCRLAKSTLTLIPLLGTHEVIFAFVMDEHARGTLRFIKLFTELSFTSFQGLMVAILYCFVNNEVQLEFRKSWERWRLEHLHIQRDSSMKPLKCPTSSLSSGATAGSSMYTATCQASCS

What was measured:
hNPY2R = target: T1, hNPY2R (Homo sapiens, UniProt P49146); test: hNPY2R CreLuc assay in 0.5% and 100% plasma (HEK-293 CRE-luciferase reporter cells); format: cell-based; conditions: HEK-293 reporter cells
T1 construct: expressed in transfected cells; host or cells: HEK-293 CRE-luciferase reporter cells
From the text: (§1) CHO and HEK-293 recombinant cell lines express a luciferase reporter gene under control of the CAMP responsive element (CRE). As a second recombinant protein the GLP-1 and NPY2 receptors were expressed in the reporter gene HEK cells, and the GIP receptor was expressed in the reporter gene CHO cells, respectively. Stimulation of these recombinant cells with an agonist leads to an increase of intracellular CAMP levels. In the presence of CAMP, the transcription factor CRE binding protein (CREB) binds to the CRE and to the CREB binding protein (CBP), which leads to transcription of the luciferase reporter gene. Peptides upon serial-dilution in 100% DMSO were transferred into 384-well assay plates with 5 μl pre-dispensed assay buffer (1×HBSS, 20 mM HEPES, pH7.4 supplemented with 0.5% human plasma) using acoustic dispensing on a Labcyte ECHO. Cryo-preserved transgenic reporter gene cells were thawed in assay buffer. 20 μl (10.000 cells/well) were added to the plate with the peptides and incubated for 4 hours at 37° C. in a humidified incubator. Following incubation, assay plates are equilibrated to room temperature, followed by addition of 25 μl of Bright-Glo™ Luciferase reagent, incubation at room temperature for 10 minutes and analysis of luminescence (Envision Reader). […] EC50 values were calculated by non-linear regression using sigmoid concentration-response with variable slope.
(§2) The same assays were run in the presence of 100% plasma with no additional buffer constituents.

hGLP1R = target: T2, hGLP1R (Homo sapiens, UniProt P43220); test: hGLP1R CreLuc assay in 0.5% and 100% plasma (HEK-293 CRE-luciferase reporter cells); format: cell-based; conditions: 100% human plasma, HEK-293 reporter cells, read-out: hGLP1R 100% hP
T2 construct: expressed in transfected cells; host or cells: HEK-293 CRE-luciferase reporter cells
From the text: as §1, §2

hGIPR = target: T3, hGIPR (Homo sapiens, UniProt P48546); test: hGIPR CreLuc assay in 0.5% and 100% plasma (CHO CRE-luciferase reporter cells); format: cell-based; conditions: 100% human plasma, read-out: hGIPR 100% hP
T3 construct: expressed in transfected cells; host or cells: CHO CRE-luciferase reporter cells
T3 sequence (P48546 22-466): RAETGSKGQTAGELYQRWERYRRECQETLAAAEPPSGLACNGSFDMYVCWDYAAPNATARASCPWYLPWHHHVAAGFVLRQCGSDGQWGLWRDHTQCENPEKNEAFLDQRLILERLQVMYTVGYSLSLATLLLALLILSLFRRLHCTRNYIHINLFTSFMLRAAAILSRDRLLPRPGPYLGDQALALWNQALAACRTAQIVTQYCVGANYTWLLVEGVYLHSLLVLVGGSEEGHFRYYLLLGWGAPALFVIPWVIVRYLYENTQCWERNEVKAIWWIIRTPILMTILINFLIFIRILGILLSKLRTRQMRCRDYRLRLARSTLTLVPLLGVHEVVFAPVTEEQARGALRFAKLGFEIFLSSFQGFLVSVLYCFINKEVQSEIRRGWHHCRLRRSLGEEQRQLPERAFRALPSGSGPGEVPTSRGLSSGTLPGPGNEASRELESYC
From the text: as §1, §2

human GLP-1 receptor = human GLP-1 receptor (human, UniProt P43220 24-463); test: cell-based or functional assay
[1] = target: human neuropeptide Y2 receptor (human, UniProt P49146 1-381); test: cell-based or functional assay

Molecule: CC[C@H](C)[C@H](NC(=O)[C@H](Cc1ccccc1)NC(=O)[C@H](C)NC(=O)C(C)(C)NC(=O)[C@H](CCC(N)=O)NC(=O)[C@H](C)NC(=O)[C@H](CCC(N)=O)NC(=O)[C@H](CCCCN)NC(=O)[C@H](CCC(=O)O)NC(=O)[C@H](CC(C)C)NC(=O)[C@](C)(CC(C)C)NC(=O)[C@@H](NC(=O)[C@H](CO)NC(=O)[C@H](Cc1ccc(O)cc1)NC(=O)[C@H](CC(=O)O)NC(=O)[C@H](CO)NC(=O)[C@@H](NC(=O)[C@H](Cc1ccccc1)NC(=O)[C@@H](NC(=O)CNC(=O)[C@H](CCC(=O)O)NC(=O)C(C)(C)NC(=O)[C@@H](N)Cc1ccc(O)cc1)[C@@H](C)O)[C@@H](C)O)[C@@H](C)CC)C(=O)N[C@@H](CCCNC(=N)N)C(=O)N[C@@H](Cc1c[nH]cn1)C(=O)N[C@@H](CC(C)C)C(=O)N[C@H](C(=O)N[C@@H](CC(N)=O)C(=O)N[C@@H](CCCCNC(=O)[C@@H](N)CCCCNC(=O)CC[C@H](NC(=O)CC[C@H](NC(=O)CC[C@H](NC(=O)CC[C@H](NC(=O)CC[C@H](NC(=O)CC[C@H](NC(=O)CCCCCCCCCCCCCCCCCCC(=O)O)C(=O)O)C(=O)O)C(=O)O)C(=O)O)C(=O)O)C(=O)O)C(=O)NC(C)(C)C(=O)N[C@H](C(=O)N[C@@H](CCCNC(=N)N)C(=O)N[C@@H](CCC(N)=O)C(=O)N[C@@H](CCCNC(=N)N)C(=O)N[C@@H](Cc1ccc(O)cc1)C(N)=O)[C@@H](C)O)[C@@H](C)CC [Compound 53, Y-Aib-E-G-T-F-T-S-D-Y-S-I-aMeL-L-E-K-Q-A-Q-Aib-A-F-I-R-H-L-I-N-K(1,3)-Aib-T-R-Q-R-Y-NH2.C20DA-gGlu-gGlu-gGlu-gGlu-gGlu-gGlu-eLys(1,2)]
- EC50 (hNPY2R; 0.5% human plasma, read-out: hNPY2R 0.5% hP): 8.2 nM
- EC50 (hGLP1R): 1.1 nM

Molecule: CC[C@H](C)[C@H](NC(=O)[C@H](CC(C)C)NC(=O)[C@H](Cc1c[nH]cn1)NC(=O)[C@H](CCCNC(=N)N)NC(=O)[C@@H](NC(=O)[C@H](Cc1ccccc1)NC(=O)[C@H](C)NC(=O)C(C)(C)NC(=O)[C@H](CCC(N)=O)NC(=O)[C@H](C)NC(=O)[C@H](CCC(N)=O)NC(=O)[C@H](CCCCN)NC(=O)[C@H](CCC(=O)O)NC(=O)[C@H](CC(C)C)NC(=O)C(C)(C)NC(=O)[C@@H](NC(=O)[C@H](CO)NC(=O)[C@H](Cc1ccc(O)cc1)NC(=O)[C@H](CC(=O)O)NC(=O)[C@H](CO)NC(=O)[C@@H](NC(=O)[C@H](Cc1ccccc1)NC(=O)[C@@H](NC(=O)CNC(=O)[C@H](CCC(=O)O)NC(=O)C(C)(C)NC(=O)[C@@H](N)Cc1ccc(O)cc1)[C@@H](C)O)[C@@H](C)O)[C@@H](C)CC)C(C)C)C(=O)N[C@@H](CC(N)=O)C(=O)N[C@@H](CCCCNC(=O)[C@@H](N)CCCCNC(=O)CC[C@H](NC(=O)CC[C@H](NC(=O)CC[C@H](NC(=O)CC[C@H](NC(=O)CC[C@H](NC(=O)CC[C@H](NC(=O)CCCCCCCCCCCCCCCCC(=O)O)C(=O)O)C(=O)O)C(=O)O)C(=O)O)C(=O)O)C(=O)O)C(=O)NC(C)(C)C(=O)N[C@H](C(=O)N[C@@H](CCCNC(=N)N)C(=O)N[C@@H](CCC(N)=O)C(=O)N[C@@H](CCCNC(=N)N)C(=O)N[C@@H](Cc1ccc(F)cc1)C(N)=O)[C@@H](C)O [Compound 86, Y-Aib-E-G-T-F-T-S-D-Y-S-I-Aib-L-E-K-Q-A-Q-Aib-A-F-V-R-H-L-I-N-K(1,3)-Aib-T-R-Q-R-Phe4F-NH2.C18DA-gGlu-gGlu-gGlu-gGlu-gGlu-gGlu-eLys(1,2)]
- EC50 (hGLP1R): 3.7 nM

Molecule: CC[C@H](C)[C@H](NC(=O)[C@H](CC(C)C)NC(=O)[C@H](Cc1c[nH]cn1)NC(=O)[C@H](CCCNC(=N)N)NC(=O)[C@@H](NC(=O)[C@H](Cc1ccccc1)NC(=O)[C@H](C)NC(=O)C(C)(C)NC(=O)[C@H](CCC(N)=O)NC(=O)[C@H](C)NC(=O)[C@H](CCC(N)=O)NC(=O)[C@H](CCC(=O)O)NC(=O)[C@H](CCC(=O)O)NC(=O)[C@H](CC(C)C)NC(=O)[C@](C)(CC(C)C)NC(=O)[C@@H](NC(=O)[C@H](CO)NC(=O)[C@H](Cc1ccc(O)cc1)NC(=O)[C@H](CC(=O)O)NC(=O)[C@H](CO)NC(=O)[C@@H](NC(=O)[C@H](Cc1ccccc1)NC(=O)[C@@H](NC(=O)CNC(=O)[C@H](CCC(=O)O)NC(=O)C(C)(C)NC(=O)[C@@H](N)Cc1ccc(O)cc1)[C@@H](C)O)[C@@H](C)O)[C@@H](C)CC)C(C)C)C(=O)N[C@@H](CC(N)=O)C(=O)N[C@@H](CCCCNC(=O)[C@@H](N)CCCCNC(=O)CC[C@H](NC(=O)CC[C@H](NC(=O)CC[C@H](NC(=O)CC[C@H](NC(=O)CC[C@H](NC(=O)CC[C@H](NC(=O)CCCCCCCCCCCCCCCCCCC(=O)O)C(=O)O)C(=O)O)C(=O)O)C(=O)O)C(=O)O)C(=O)O)C(=O)NC(C)(C)C(=O)N[C@H](C(=O)N[C@@H](CCCNC(=N)N)C(=O)N[C@@H](CCC(N)=O)C(=O)N[C@@H](CCCNC(=N)N)C(=O)N[C@@H](Cc1ccc(O)cc1)C(N)=O)[C@@H](C)O [Compound 89, Y-Aib-E-G-T-F-T-S-D-Y-S-I-aMeL-L-E-E-Q-A-Q-Aib-A-F-V-R-H-L-I-N-K(1,3)-Aib-T-R-Q-R-Y-NH2.C20DA-gGlu-gGlu-gGlu-gGlu-gGlu-gGlu-eLys(1,2)]
- EC50 (hNPY2R; 100% human plasma, read-out: hNPY2R 100% hP): 160 nM

Molecule: CC[C@H](C)[C@H](NC(=O)[C@H](CC(C)C)NC(=O)[C@H](Cc1c[nH]cn1)NC(=O)[C@H](CCCNC(=N)N)NC(=O)[C@@H](NC(=O)[C@H](Cc1ccccc1)NC(=O)[C@H](C)NC(=O)C(C)(C)NC(=O)[C@H](CCC(=O)O)NC(=O)[C@H](C)NC(=O)[C@H](CCC(N)=O)NC(=O)[C@H](CCCCN)NC(=O)[C@H](CCC(=O)O)NC(=O)[C@H](CC(C)C)NC(=O)[C@](C)(CC(C)C)NC(=O)[C@@H](NC(=O)[C@H](CO)NC(=O)[C@H](Cc1ccc(O)cc1)NC(=O)[C@H](CC(=O)O)NC(=O)[C@H](CO)NC(=O)[C@@H](NC(=O)[C@H](Cc1ccccc1)NC(=O)[C@@H](NC(=O)CNC(=O)[C@H](CCC(=O)O)NC(=O)C(C)(C)NC(=O)[C@@H](N)Cc1ccc(O)cc1)[C@@H](C)O)[C@@H](C)O)[C@@H](C)CC)C(C)C)C(=O)N[C@@H](CC(N)=O)C(=O)N[C@@H](CCCCNC(=O)[C@@H](N)CCCCNC(=O)CC[C@H](NC(=O)CC[C@H](NC(=O)CC[C@H](NC(=O)CC[C@H](NC(=O)CC[C@H](NC(=O)CC[C@H](NC(=O)CCCCCCCCCCCCCCCCCCC(=O)O)C(=O)O)C(=O)O)C(=O)O)C(=O)O)C(=O)O)C(=O)O)C(=O)NC(C)(C)C(=O)N[C@H](C(=O)N[C@@H](CCCNC(=N)N)C(=O)N[C@@H](CCC(N)=O)C(=O)N[C@@H](CCCNC(=N)N)C(=O)N[C@@H](Cc1ccc(O)cc1)C(N)=O)[C@@H](C)O [Compound 103, Y-Aib-E-G-T-F-T-S-D-Y-S-I-aMeL-L-E-K-Q-A-E-Aib-A-F-V-R-H-L-I-N-K(1,3)-Aib-T-R-Q-R-Y-NH2.C20DA-gGlu-gGlu-gGlu-gGlu-gGlu-gGlu-eLys(1,2)]
- EC50 (hGIPR): 3.6 nM

B1: Compound 20 (peptide)
peptide: YXEGTFTSDLSIXLEKQAQXAFVRHLINKXTRQRY
modifications: Aib at 2, 13, 20, 30; Lys29 epsilon-amino acylated with C20DA-gGlu-gGlu-gGlu-gGlu-gGlu-gGlu-eLys; C-terminal amide
- EC50, CreLuc reporter, 0.5% hP (human GLP-1 receptor): 3.9 nM
- EC50, CreLuc reporter, 100% hP (human GLP-1 receptor): 11 nM
- EC50, CreLuc reporter, 0.5% hP [1]: 9.5 nM
